Target: Phosphatidylinositol 4,5-bisphosphate 3-kinase catalytic subunit beta isoform (Homo sapiens, UniProt P42338)
Experiment: Inhibition of PI3Kbeta (unknown origin)

Chains of the proteins cited; added tags and fusions are not shown. Lines headed by an entry give the natural chain unless they say otherwise; changes in a name come on top.
UniProt P42338: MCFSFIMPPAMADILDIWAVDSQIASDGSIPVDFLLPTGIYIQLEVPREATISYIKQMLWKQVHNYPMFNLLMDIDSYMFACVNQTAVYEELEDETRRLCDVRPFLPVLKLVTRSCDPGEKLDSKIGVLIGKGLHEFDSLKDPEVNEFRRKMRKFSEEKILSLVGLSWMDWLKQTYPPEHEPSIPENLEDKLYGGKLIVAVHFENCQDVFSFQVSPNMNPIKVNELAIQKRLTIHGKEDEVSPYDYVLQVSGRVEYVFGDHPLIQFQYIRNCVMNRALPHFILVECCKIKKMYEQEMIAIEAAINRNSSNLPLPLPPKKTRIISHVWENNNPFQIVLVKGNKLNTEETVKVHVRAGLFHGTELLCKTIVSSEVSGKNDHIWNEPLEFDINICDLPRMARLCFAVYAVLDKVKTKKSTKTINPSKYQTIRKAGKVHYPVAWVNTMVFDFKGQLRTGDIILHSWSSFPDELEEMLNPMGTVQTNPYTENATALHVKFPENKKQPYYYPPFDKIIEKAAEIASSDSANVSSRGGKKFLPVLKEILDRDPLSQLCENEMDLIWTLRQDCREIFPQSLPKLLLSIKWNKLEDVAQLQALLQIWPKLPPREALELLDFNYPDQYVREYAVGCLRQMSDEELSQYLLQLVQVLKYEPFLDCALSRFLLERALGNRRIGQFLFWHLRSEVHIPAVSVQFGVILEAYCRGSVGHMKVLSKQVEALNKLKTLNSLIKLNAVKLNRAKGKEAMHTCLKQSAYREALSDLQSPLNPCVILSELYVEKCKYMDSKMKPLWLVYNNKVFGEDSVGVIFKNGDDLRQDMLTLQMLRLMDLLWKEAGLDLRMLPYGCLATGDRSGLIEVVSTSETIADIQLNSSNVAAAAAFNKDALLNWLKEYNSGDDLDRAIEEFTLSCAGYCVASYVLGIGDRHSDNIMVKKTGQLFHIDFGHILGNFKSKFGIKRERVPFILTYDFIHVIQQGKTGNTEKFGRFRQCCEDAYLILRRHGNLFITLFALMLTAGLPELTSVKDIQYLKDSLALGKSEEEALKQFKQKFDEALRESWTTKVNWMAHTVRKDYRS

IC50: 5.43 µM
Structure (SMILES): O=c1cc(N2CCOCC2)oc2c(-c3ccccc3)cccc12 [LY-294002]

— ChEMBL document CHEMBL5376013, “Design, synthesis and biological evaluation of novel morpholinopyrimidine-5-carbonitrile derivatives as dual PI3K/mTOR inhibitors” (RSC Med Chem, 2024)
